Reference: patent US20160287666A1 (priority 2015, published 2016)

Chains of the proteins cited; added tags and fusions are not shown. Lines headed by an entry give the natural chain unless they say otherwise; changes in a name come on top.
UniProt Q15858: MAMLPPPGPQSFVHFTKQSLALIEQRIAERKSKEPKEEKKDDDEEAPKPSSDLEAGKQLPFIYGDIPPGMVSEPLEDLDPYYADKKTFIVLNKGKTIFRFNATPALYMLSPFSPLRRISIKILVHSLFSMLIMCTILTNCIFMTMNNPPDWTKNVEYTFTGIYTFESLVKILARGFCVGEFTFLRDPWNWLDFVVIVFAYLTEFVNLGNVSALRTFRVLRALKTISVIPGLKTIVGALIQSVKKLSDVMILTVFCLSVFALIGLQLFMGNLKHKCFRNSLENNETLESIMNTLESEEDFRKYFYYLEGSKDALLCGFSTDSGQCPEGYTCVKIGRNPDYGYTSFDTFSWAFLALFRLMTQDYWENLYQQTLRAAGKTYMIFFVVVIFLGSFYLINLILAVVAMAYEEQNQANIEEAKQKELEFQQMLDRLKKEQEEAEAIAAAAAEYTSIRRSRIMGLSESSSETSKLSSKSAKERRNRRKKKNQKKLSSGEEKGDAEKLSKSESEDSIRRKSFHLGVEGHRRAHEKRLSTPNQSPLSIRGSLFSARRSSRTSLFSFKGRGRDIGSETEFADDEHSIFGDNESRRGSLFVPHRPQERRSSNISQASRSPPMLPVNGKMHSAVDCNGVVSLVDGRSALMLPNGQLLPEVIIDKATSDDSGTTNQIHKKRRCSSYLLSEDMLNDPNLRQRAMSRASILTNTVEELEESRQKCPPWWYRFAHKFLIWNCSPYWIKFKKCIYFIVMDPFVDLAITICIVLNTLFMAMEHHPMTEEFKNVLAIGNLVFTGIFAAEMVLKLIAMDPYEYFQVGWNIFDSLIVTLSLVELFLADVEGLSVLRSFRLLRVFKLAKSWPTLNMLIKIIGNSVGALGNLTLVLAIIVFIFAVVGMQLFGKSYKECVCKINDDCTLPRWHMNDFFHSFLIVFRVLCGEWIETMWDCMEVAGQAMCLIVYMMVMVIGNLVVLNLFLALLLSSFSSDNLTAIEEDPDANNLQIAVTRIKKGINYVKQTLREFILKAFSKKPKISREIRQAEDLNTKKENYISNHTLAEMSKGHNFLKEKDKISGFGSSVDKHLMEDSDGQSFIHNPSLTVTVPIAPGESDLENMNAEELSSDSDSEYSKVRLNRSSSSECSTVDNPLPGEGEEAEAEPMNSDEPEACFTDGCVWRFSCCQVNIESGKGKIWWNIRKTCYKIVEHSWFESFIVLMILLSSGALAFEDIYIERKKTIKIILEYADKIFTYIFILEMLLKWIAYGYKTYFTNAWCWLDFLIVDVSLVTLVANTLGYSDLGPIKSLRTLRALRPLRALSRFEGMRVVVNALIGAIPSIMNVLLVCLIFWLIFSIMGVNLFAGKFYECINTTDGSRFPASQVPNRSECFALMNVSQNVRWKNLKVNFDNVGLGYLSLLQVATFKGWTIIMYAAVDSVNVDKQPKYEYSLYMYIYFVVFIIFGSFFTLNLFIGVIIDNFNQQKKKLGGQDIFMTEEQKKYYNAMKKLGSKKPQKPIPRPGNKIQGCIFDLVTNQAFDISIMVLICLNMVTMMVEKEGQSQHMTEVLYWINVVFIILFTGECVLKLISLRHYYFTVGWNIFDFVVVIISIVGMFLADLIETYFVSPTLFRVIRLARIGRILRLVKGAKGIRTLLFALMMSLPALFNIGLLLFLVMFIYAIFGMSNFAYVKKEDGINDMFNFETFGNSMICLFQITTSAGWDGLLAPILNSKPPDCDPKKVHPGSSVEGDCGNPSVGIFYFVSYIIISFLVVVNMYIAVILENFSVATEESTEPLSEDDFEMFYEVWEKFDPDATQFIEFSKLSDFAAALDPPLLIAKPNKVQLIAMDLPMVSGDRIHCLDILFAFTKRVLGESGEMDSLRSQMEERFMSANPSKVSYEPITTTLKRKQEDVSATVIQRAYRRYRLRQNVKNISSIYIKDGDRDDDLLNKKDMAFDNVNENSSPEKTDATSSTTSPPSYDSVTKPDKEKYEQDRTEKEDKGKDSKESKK

These substances were tested against human Nav1.7 (Homo sapiens, UniProt Q15858, W1161R). Conditions: read-out: Nav1.7 IC50.
Format: cell-based

| Substance | IC50 |
| --- | --- |
| GPQCQKWMQTCDRESKCCEGFVCTLWCRKKLW-COOH [NV1D3375] | 113 nM |
| GPQCQKWMQTCDRETKCCEGFVCTLWCRKKLW-COOH [NV1D3370] | 181 nM |
| GPQCQKWMQTCDRKRKCCEGFVCRLWCKKKLW-COOH [NV1D3050] | 10.8 nM |
| GPQCQKWMQTCDRKRKCCEGFVCRLWCRKKLW-COOH [NV1D3057] | 83.4 nM |
| GPQCQKWMQTCDRKRKCCEGFVCTLWCKKKLW-COOH [NV1D3056] | 16.2 nM |
| GPQCQKWMQTCDRKRKCCEGFVCTLWCRKKLW-COOH [NV1D3062] | 13.2 nM |
| GPQCQKWMQTCDRNRKCCEGFSCTLWCRKKLW-COOH [NV1D3542] | 17.7 nM |
| GPQCQKWMQTCDRNRKCCEGFVCRLWCKKKLW-COOH [NV1D3012] | 7.74 nM |
| GPQCQKWMQTCDRNRKCCEGFVCRLWCRKKLW-COOH [NV1D3032] | 13 nM |
| GPQCQKWMQTCDRNRKCCEGFVCTLWCKKKLW-COOH [NV1D3030] | 41.9 nM |
| GPQCQKWMQTCDRNRKCCEGFVCTLWCRKKLW-COOH [NV1D3044] | 9.8 nM |
| GPQCQKWMQTCDRQRKCCEGFVCTLWCRKKLW-COOH [NV1D3367] | 18.6 nM |
| GPQCQKWMQTCDRRRKCCEGFVCRLWCKKKLW-COOH [NV1D3013] | 11.3 nM |
| GPQCQKWMQTCDRRRKCCEGFVCRLWCRKKLW-COOH [NV1D3033] | 14.5 nM |
| GPQCQKWMQTCDRRRKCCEGFVCTLWCKKKLW-COOH [NV1D3031] | 13 nM |
| GPQCQKWMQTCDRRRKCCEGFVCTLWCRKKLW-COOH [NV1D3045] | 15.6 nM |
| GPQCQKWMQTCDRTRKCCEGFVCTLWCRKKLW-COOH [NV1D3368] | 33.5 nM and 17.9 nM |
| GPQCQKWMQTCKRKDKCCEGFVCTLWCRKKLW-COOH [NV1D3426] | 135 nM |
| GPQCQKWMQTCKRKEKCCEGFVCTLWCRKKLW-COOH [NV1D3428] | 180 nM |
| GPQCQKWMQTCKRKRKCCEGFVCTLWCRKKLW-COOH [NV1D3424] | 75.2 nM |
| GPQCQKWMQTCQRERKCCEGFVCTLWCRKKLW-COOH [NV1D3365] | 66.1 nM |
| GPQCQKWMQTCRRERKCCEGFVCTLWCRKKLW-COOH [NV1D3360] | 45.2 nM |
| GPQCQKWMQTCRRRDKCCEGFVCTLWCRKKLW-COOH [NV1D3425] | 161 nM |

| Substance | IC50 |
| --- | --- |
| GPQCQKWMQTCRRRRKCCEGFVCTLWCRKKLW-COOH [NV1D3423] | 99.5 nM |
| GPQCQKWMQTCSRERKCCEGFVCTLWCRKKLW-COOH [NV1D3366] | 24.6 nM |
| GPQCQKWMQTCTRERKCCEGFVCTLWCRKKLW-COOH [NV1D3362] | 20.1 nM |
| GPQCQKWMWTCDAERKCCEGFVCRLWCKKKLW-COOH [NV1D2740] | 3.62 nM |
| GPQCQKWMWTCDAERKCCEGMVCRLWCKKKLW-COOH [NV1D2675] | 4.33 nM |
| GPQCQQWMQTCDRERKCCEGFVCTLWCRKKLW-COOH [NV1D3351] | 15.3 nM |
| GPQCQRWMQTCDRERKCCEGFVCTLWCRKKLW-COOH [NV1D3346] | 23.2 nM |
| GPQCQSWMQTCDRERKCCEGFVCTLWCRKKLW-COOH [NV1D3352] | 14.2 nM |
| GPQCRKWMQTCDRERKCCEGFVCTLWCRKKLW-COOH [NV1D3339] | 6.57 nM |
| GPQCSKWMQTCDRERKCCEGFVCTLWCRKKLW-COOH [NV1D3345] | 22.4 nM |
| GPQCTKWMQTCDRERKCCEGFVCTLWCRKKLW-COOH [NV1D3341] | 66.2 nM |
| GPQRFVTGHFGGLYPANGAPAPAPAPAPQCQKWMQTCDRERKCCEGFVCTLWCRKKLW-COOH [NV1D3810] | 66.9 nM |
| GPQRFVTGHFGGLYPANGAPAPAQCQKWMQTCDRERKCCEGFVCTLWCRKKLW-COOH [NV1D3811] | 87.7 nM |
| GPQRFVTGHFGGLYPANGQCQKWMQTCDRERKCCEGFVCTLWCRKKLW-COOH [NV1D3812] | 101 nM |
| GPRCQKWMQTCDAERKCCEGFSCRLWCKKKLW-COOH [NV1D3577] | 18.8 nM |
| GPRCQKWMQTCDAERKCCEGFSCTLWCKKKLW-COOH [NV1D3555] | 37.4 nM |
| GPRCQKWMQTCDAERKCCEGFVCTLWCKKKLW-COOH [NV1D3566] | 23.7 nM |
| GPRCQKWMQTCDAKRKCCEGFSCTLWCRKKLW-COOH [NV1D3534] | 20.6 nM |
| GPRCQKWMQTCDAKRKCCEGFVCTLWCRKKLW-COOH [NV1D3529] | 14.6 nM |
| GPRCQKWMQTCDANRKCCEGFSCRLWCKKKLW-COOH [NV1D3584] | 13.9 nM |
| GPRCQKWMQTCDANRKCCEGFSCTLWCKKKLW-COOH [NV1D3558] | 26.7 nM |
| GPRCQKWMQTCDANRKCCEGFVCTLWCKKKLW-COOH [NV1D3573] | 64.7 nM |
| GPRCQKWMQTCDARRKCCEGFSCRLWCKKKLW-COOH [NV1D3580] | 8.4 nM |

| Substance | IC50 |
| --- | --- |
| GPRCQKWMQTCDARRKCCEGFSCTLWCKKKLW-COOH [NV1D3562] | 23.6 nM |
| GPRCQKWMQTCDARRKCCEGFVCTLWCKKKLW-COOH [NV1D3569] | 11.9 nM |
| GPRCQKWMQTCDRERKCCEGFSCTLWCRKKLW-COOH [NV1D3551] | 29.3 nM |
| GPRCQKWMQTCDRERKCCEGFVCTLWCRKKLW-COOH [NV1D3547] | 26.5 nM |
| GPRCQKWMQTCDRNRKCCEGFSCTLWCRKKLW-COOH [NV1D3543] | 23.8 nM |
| GPRCQKWMQTCDRNRKCCEGFVCTLWCRKKLW-COOH [NV1D3538] | 11.6 nM |
| GPRCQKWMQTCDSERKCCEGFVCRLWCKKKLW-COOH [NV1D2733] | 7.54 nM |
| GPRCQKWMWTCDSERKCCEGFVCRLWCKKKLW-COOH [NV1D2662] | 4.03 nM |
| GPRRRRRRRRRRRAPAPAPAPAPQCQKWMQTCDRERKCCEGFVCTLWCRKKLW-COOH [NV1D3813] | 139 nM |
| GPRRRRRRRRRRRQCQKWMQTCDRERKCCEGFVCTLWCRKKLW-COOH [NV1D3815] | 102 nM |
| GPSCQKWMQTCDAERKCCEGFSCRLWCKKKLW-COOH [NV1D2969] | 31 nM |
| GPSCQKWMQTCDAERKCCEGFSCTLWCKKKLW-COOH [NV1D2971] | 77.5 nM |
| GPSCQKWMQTCDAERKCCEGFVCTLWCKKKLW-COOH [NV1D2970] | 58 nM |
| GPSCQKWMQTCDAKRKCCEGFSCTLWCRKKLW-COOH [NV1D3535] | 18.7 nM |
| GPSCQKWMQTCDAKRKCCEGFVCTLWCRKKLW-COOH [NV1D3530] | 15.6 nM |
| GPSCQKWMQTCDANRKCCEGFSCRLWCKKKLW-COOH [NV1D3585] | 19.4 nM |
| GPSCQKWMQTCDANRKCCEGFSCTLWCKKKLW-COOH [NV1D3559] | 26.5 nM |
| GPSCQKWMQTCDANRKCCEGFVCTLWCKKKLW-COOH [NV1D3574] | 22.3 nM |
| GPSCQKWMQTCDARRKCCEGFSCRLWCKKKLW-COOH [NV1D3581] | 14.6 nM |
| GPSCQKWMQTCDARRKCCEGFSCTLWCKKKLW-COOH [NV1D3563] | 22.4 nM |
| GPSCQKWMQTCDARRKCCEGFVCTLWCKKKLW-COOH [NV1D3570] | 18.1 nM |
| GPSCQKWMQTCDRERKCCEGFSCTLWCRKKLW-COOH [NV1D3552] | 28.1 nM |
| GPSCQKWMQTCDRERKCCEGFVCTLWCRKKLW-COOH [NV1D3548] | 17.6 nM |

| Substance | IC50 |
| --- | --- |
| GPSCQKWMQTCDRNRKCCEGFSCTLWCRKKLW-COOH [NV1D3544] | 17.8 nM |
| GPSCQKWMQTCDRNRKCCEGFVCTLWCRKKLW-COOH [NV1D3539] | 19.4 nM |
| GPSCQKWMWTCDAERKCCEGFVCRLWCKKKLW-COOH [NV1D2738] | 2.57 nM |
| GPSCQKWMWTCDAERKCCEGMVCRLWCKKKLW-COOH [NV1D2673] | 4.31 nM |
| GPSCQKWMWTCDSERKCCEGFVCRLWCKKKLW-COOH [NV1D2663] | 4.19 nM |
| GPSHSNTQTLAKAPEHTGQCQKWMQTCDRERKCCEGFVCTLWCRKKLW-COOH [NV1D3777] | 64.9 nM |
| GPSPGARAFAPAPAPAPAPQCQKWMQTCDRERKCCEGFVCTLWCRKKLW-COOH [NV1D3801] | 88.1 nM |
| GPSPGARAFAPAPAQCQKWMQTCDRERKCCEGFVCTLWCRKKLW-COOH [NV1D3802] | 68 nM |
| GPSPGARAFQCQKWMQTCDRERKCCEGFVCTLWCRKKLW-COOH [NV1D3803] | 32.3 nM |
| GPYCQKWMQTCDAERKCCEGFSCRLWCKKKLW-COOH [NV1D3578] | 50.7 nM |
| GPYCQKWMQTCDAERKCCEGFSCTLWCKKKLW-COOH [NV1D3556] | 100 nM |
| GPYCQKWMQTCDAKRKCCEGFSCTLWCRKKLW-COOH [NV1D3536] | 37 nM |
| GPYCQKWMQTCDAKRKCCEGFVCTLWCRKKLW-COOH [NV1D3531] | 13 nM |
| GPYCQKWMQTCDANRKCCEGFSCRLWCKKKLW-COOH [NV1D3586] | 20.5 nM |
| GPYCQKWMQTCDANRKCCEGFSCTLWCKKKLW-COOH [NV1D3560] | 27.2 nM |
| GPYCQKWMQTCDANRKCCEGFVCTLWCKKKLW-COOH [NV1D3575] | 33.2 nM |
| GPYCQKWMQTCDARRKCCEGFSCRLWCKKKLW-COOH [NV1D3582] | 17.8 nM |
| GPYCQKWMQTCDARRKCCEGFSCTLWCKKKLW-COOH [NV1D3564] | 32.3 nM |
| GPYCQKWMQTCDARRKCCEGFVCTLWCKKKLW-COOH [NV1D3571] | 21 nM |
| GPYCQKWMQTCDRERKCCEGFSCTLWCRKKLW-COOH [NV1D3553] | 52.4 nM |
| GPYCQKWMQTCDRERKCCEGFVCTLWCRKKLW-COOH [NV1D3549] | 27.5 nM |
| GPYCQKWMQTCDRNRKCCEGFSCTLWCRKKLW-COOH [NV1D3545] | 42.8 nM |
| GPYCQKWMQTCDRNRKCCEGFVCTLWCRKKLW-COOH [NV1D3540] | 16 nM |

Same assay, conditions: read-out: hNav1.7 TETRA IC50

| Substance | IC50 |
| --- | --- |
| GPQCQKWMQTCDSERKCCEGMVCRLWCKKKLW-COOH [NV1D2671] | 31.5 ± 6.4 nM |
| GPQCQKWMWTCDSERKCCEGFVCRLWCKKKLW-COOH [NV1D2665] | 4.9 ± 0.4 nM |
| GPRCQKWMQTCDAERKCCEGLVCRLWCKKKLW-COOH [NV1D2896] | 80.3 ± 7.1 nM |
| GPRCQKWMQTCDAERKCCEGMVCRLWCKKKLW-COOH [NV1D2729] | 8 ± 0.9 nM |
| GPRCQKWMQTCDSERKCCEGMVCRLWCKKKLW-COOH [NV1D2668] | 17.5 ± 2.6 nM |
| GPRCQKWMWTCDAERKCCEGMVCRLWCKKKLW-COOH [NV1D2672] | 4.5 ± 0.3 nM |
| GPSCQKWMQTCDAERKCCEGLVCRLWCKKKLW-COOH [NV1D2899] | 33.3 ± 6.7 nM |
| GPSCQKWMQTCDAERKCCEGMVCRLWCKKKLW-COOH [NV1D2730] | 25.5 ± 4.3 nM |
| GPSCQKWMQTCDSERKCCEGFVCRLWCKKKLW-COOH [NV1D2734] | 13.4 ± 0.8 nM |
| GPSCQKWMQTCDSERKCCEGMVCRLWCKKKLW-COOH [NV1D2669] | 18.4 ± 5.7 nM |
| GPYCQKWMQTCDAERKCCEGMVCRLWCKKKLW-COOH [NV1D2676] | 26.5 ± 2.9 nM |

Where “and” joins values, the source holds several entries; their conditions need not be identical. Identical values can stand only once.
